Literature values, collected in patent US9005905B2, “Method of identifying transmembrane protein-interacting compounds” (Omeros Corporation, priority 2002, dated 2015).

Amino acid sequences for entries named in this document (tags omitted).
UniProt P35372, whole entry: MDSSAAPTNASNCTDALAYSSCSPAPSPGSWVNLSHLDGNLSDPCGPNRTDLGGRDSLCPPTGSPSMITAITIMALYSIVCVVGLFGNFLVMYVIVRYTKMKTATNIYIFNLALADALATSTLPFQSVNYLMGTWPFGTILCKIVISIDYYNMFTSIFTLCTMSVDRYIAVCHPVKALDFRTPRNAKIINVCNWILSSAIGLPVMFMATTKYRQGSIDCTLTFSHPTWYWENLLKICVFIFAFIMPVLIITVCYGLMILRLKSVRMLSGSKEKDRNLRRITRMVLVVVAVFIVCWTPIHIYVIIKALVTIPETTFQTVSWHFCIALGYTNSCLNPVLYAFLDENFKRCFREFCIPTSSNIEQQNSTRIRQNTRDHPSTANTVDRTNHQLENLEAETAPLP
UniProt P41143, whole entry: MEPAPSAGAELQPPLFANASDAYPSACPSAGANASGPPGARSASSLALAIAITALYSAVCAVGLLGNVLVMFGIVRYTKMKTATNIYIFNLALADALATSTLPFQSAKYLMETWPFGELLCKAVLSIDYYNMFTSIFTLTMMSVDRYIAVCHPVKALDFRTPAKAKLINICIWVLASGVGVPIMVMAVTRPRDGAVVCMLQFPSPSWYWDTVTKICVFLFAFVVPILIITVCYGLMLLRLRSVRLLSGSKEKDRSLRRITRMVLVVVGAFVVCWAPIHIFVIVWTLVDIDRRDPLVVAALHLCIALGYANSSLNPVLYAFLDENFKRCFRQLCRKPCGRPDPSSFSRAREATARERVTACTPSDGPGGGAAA

Biological target: mu and delta opioid receptors (Homo sapiens, UniProt P35372+P41143)
Details: cited from earlier work

| Substance | potency at co-expressed versus individual receptors | affinity at co-expressed versus individual receptors |
| --- | --- | --- |
| DPDPE | reduced potency | – |
| endomorphin-1 | – | enhanced affinity |
